The results in this text go back to US20170143835A1, “SUBSTITUTED ANIONIC COMPOUNDS CONSISTING OF A BACKBONE MADE UP OF A DISCRETE NUMBER OF SACCHARIDE UNITS” (ADOCIA, priority 2012, published 2017).

Amino acid sequences for entries named in this document (tags omitted). Residues count along the entry.
UniProt P02769, 25-607: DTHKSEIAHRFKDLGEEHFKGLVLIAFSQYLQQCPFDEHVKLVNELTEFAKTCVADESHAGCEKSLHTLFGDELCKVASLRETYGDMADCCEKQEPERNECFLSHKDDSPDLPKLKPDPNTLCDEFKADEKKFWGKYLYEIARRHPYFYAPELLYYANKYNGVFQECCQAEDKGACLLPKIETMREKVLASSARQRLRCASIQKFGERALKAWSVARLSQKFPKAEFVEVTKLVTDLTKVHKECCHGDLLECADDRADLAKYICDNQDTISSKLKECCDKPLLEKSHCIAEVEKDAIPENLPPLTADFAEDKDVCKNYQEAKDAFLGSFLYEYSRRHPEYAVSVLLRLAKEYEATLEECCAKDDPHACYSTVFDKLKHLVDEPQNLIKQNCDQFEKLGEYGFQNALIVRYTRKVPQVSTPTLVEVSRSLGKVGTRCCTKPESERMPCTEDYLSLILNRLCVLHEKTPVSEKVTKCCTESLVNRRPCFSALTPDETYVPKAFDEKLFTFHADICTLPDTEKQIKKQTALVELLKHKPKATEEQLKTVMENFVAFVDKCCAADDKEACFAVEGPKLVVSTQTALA

The target of this experiment is serum albumin (BSA) (Bos taurus, UniProt P02769). Description: Fluorescence test for interaction with albumin. It is filed as binding, bovine. The following applies: compound/BSA weight ratio 1; BSA 0.5 mg/ml, PBS pH 7.4; excitation 280 nm, emission 350 nm. How it is done:
The test carried out is a “fluorescence” test with albumin, which makes it posible, by measuring the variations in fluorescence of albumin, to verify whether an interaction exists between the compound tested and albumin.
The compound/albumin solutions are prepared from stock solutions of compounds and of serum albumin (BSA) by mixing the appropriate volumes in order to obtain a fixed BSA concentration at 0.5 mg/ml and compound/BSA weight ratios of 1, 5 and 10. These solutions are prepared in a PBS buffer at pH 7.4.
200 μl of the various compound/BSA solutions are introduced into a 96-well plate. The fluorescence measurements are carried out at room temperature (20° C.) with an EnVision® fluorescence spectrometer (PerkinElmer). […] This corresponds to the fluorescence of the tryptophan residues of albumin (Ruiz-Peña M. et al., M, A. Physico-chemical studies of molecular interactions between non-ionic surfactants and bovine serum albumin, Colloids Surf. B Biointerfaces 2010, 75, 282-289). […] If this ratio is less than 1, this means that the compound induces partial quenching of the albumin fluorescence linked to a change in environment of the tryptophan residues. […] It was verified, as a control, that, for all the compounds tested, the fluorescence of the compound alone is negligible considering the fluorescence of albumin (fluorescence (compound) <2% fluorescence (albumin)).

On to “Sodium maltotriosemethylcarboxylate Functionalized with dilauryl aspartate [Compound 19]”, for which the “Result F/F0 <0.5” value is “YES”.
